Laboratory results reported in US4335213A (priority 1979, dated 1982).

Conditions: pH 7

galactose oxidase
Heat stability: loss of activity: about 90% | Heat stability: temperature up to which stable: up to 50 °C
